Experiment [1] deals with T1, E3 ubiquitin-protein ligase CBL-B (Homo sapiens, UniProt Q13191). Put plainly: Inhibition of biotinylated recombinant Cbl-b (36 to 427 residues)(unknown origin) expressed in Escherichia coli BL21(DE3) Tuner cells assessed as decrease in Cbl-b auto-ubiquitination incubated for 60 mins in presence of Ub-FITC/ATP by TR-FRET assay. Background: In TR-FRET formats the signal depends on donor and acceptor labels being close together.

Protein sequences, listed by entry. Tags and fused reporters are not part of them.
UniProt Q13191, whole entry: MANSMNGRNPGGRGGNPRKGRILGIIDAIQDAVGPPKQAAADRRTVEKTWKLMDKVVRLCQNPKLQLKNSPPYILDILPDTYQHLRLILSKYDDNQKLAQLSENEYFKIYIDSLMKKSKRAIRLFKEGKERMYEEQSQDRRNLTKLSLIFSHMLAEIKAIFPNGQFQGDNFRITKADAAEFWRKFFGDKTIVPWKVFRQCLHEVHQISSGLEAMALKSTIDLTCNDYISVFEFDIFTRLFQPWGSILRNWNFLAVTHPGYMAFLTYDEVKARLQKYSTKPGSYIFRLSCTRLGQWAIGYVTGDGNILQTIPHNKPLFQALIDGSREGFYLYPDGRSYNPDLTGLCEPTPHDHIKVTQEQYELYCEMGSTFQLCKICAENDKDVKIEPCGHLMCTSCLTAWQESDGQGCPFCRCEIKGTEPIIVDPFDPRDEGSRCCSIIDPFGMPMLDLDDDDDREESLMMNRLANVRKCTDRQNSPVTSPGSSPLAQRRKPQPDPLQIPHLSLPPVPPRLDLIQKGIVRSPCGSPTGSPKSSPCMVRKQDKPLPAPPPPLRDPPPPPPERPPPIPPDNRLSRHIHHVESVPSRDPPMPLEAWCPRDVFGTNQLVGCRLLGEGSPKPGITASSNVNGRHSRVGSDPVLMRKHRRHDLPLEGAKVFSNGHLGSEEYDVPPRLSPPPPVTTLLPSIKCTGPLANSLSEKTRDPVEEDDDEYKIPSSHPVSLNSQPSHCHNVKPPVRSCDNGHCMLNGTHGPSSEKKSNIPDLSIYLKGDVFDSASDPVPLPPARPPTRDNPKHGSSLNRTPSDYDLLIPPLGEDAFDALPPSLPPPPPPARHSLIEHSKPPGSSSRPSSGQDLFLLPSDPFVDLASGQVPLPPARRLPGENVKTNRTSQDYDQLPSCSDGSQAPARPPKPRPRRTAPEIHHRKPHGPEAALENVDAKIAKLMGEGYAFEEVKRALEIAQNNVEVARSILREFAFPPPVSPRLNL

Experiment [2] addresses T1, E3 ubiquitin-protein ligase CBL-B. The experiment in a line: Inhibition of biotinylated recombinant Cbl-b (36 to 427 residues)(unknown origin) expressed in Escherichia coli BL21(DE3) Tuner cells assessed as decrease in ZAP70 ubiquitination incubated for 60 mins in presence of Ub-FITC/ATP by TR-FRET assay.
Experiment [3] has the same target.
For experiment [4] the target is unchanged. Put plainly: Inhibition of biotinylated recombinant Cbl-b (36 to 427 residues)(unknown origin) expressed in Escherichia coli BL21(DE3) Tuner cells using a FAM-labeled probe by TR-FRET assay.

One may read the IC50 as the midpoint of a concentration-inhibition curve. As a reminder, the EC50 is the midpoint of the concentration-response curve. Higher therefore signals weaker potency.

As to `C[C@@H](c1cnn(C)c1)n1cc(C(F)(F)F)cc(-c2cccc([C@]3(c4nncn4C)C[C@@H](C)C3)c2)c1=O`, the IC50 in experiment [1] turned out to be 63.4 nM; in experiment [2], 84.1 nM. In addition, the EC50 in experiment [3] came to 610 nM.
Turning to `C[C@H](c1cnn(C)c1)n1cc(C(F)(F)F)cc(-c2cccc([C@]3(c4nncn4C)C[C@@H](C)C3)c2)c1=O`, the IC50 worked out at 40 nM in experiment [4], 119 nM in experiment [1] and 135 nM in experiment [2]. For the same compound, the response in experiment [3] was half-maximal at 760 nM (EC50).

The values are drawn from ChEMBL document CHEMBL5537183, “Discovery, Optimization, and Biological Evaluation of Arylpyridones as Cbl-b Inhibitors” (J Med Chem, 2024).
